# Laboratory results reported in PubChem BioAssay AID1415 (NMMLSC, 2008).
# The chains behind the UniProt entries cited, without tags or fusion partners.
# UniProt P09471, whole entry: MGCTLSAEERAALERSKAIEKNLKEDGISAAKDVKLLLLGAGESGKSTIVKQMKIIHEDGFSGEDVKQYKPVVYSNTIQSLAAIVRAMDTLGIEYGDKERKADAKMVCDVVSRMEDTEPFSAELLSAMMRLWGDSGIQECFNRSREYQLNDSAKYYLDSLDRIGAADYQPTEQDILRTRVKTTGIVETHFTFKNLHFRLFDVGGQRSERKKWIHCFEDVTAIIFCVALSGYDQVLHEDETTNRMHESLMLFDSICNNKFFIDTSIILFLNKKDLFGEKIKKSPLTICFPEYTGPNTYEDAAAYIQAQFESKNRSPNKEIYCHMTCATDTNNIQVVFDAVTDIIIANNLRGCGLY
# This is a selection; strong and weak results do not stand in their true shares. Some results for these compounds are left out of this collection, so the calls shown say nothing about other tests. Calls of active or inactive are those of the source. Rule as the data show it: active = binding response below about 49% or above about 150%; inactive = in between.
# Target: Guanine nucleotide-binding protein G(o) subunit alpha (Homo sapiens) (UniProt P09471)
# Experiment: modulators of RGS4 binding to Galphao, primary screen, biochemical, multiplexed bead flow cytometry (AID 1415);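 also: fluorescent Galphao activated with aluminum fluoride binding bead-coupled RGS4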
# Settings: at 10 µM, actives lie on both sides
row,SMILES,binding response (% of control)
1,COc1cccc(C(=O)NCC2(N3CCCCC3)CCCCC2)c1,inactive: 99.1%
2,O=C(OC1CN2CCC1CC2)C(CO)(c1ccccc1)c1ccccc1 (stereo unspecified),inactive: 100%
3,COc1ccc(Br)c(C(=O)NCC2(N3CCCCC3)CCCCC2)c1,inactive: 99.1%
4,CN(C)c1cccc(C(=O)NCC2(N(C)C)CCCCC2)c1,inactive: 98.8%
5,O=C(NCC1(N2CCCCC2)CCCCC1)c1cc([N+](=O)[O-])ccc1Cl,inactive: 105%
6,CC(C)N1C(=O)CC2(CCN(CCOC(=O)C(O)(c3ccccc3)c3ccccc3)CC2)C1=O,inactive: 96.9%
7,CCN(CC)CC(C)C(C)OC(=O)C(O)(c1ccccc1)c1ccccc1 (stereo unspecified),inactive: 96.5%
8,Cc1ccccc1C(=O)NCC1(N2CCCCC2)CCCCC1,inactive: 108%
9,CN(C)C1CCCC1OC(=O)C(O)(c1ccccc1)c1ccccc1 (stereo unspecified),inactive: 101%
10,C=CCN1CCN(CCOC(=O)C(O)(c2ccccc2)c2ccccc2)CC1,inactive: 102%
11,CCN1CCCC(OC(=O)C2(O)c3ccccc3C=Cc3ccccc32)C1 (stereo unspecified),inactive: 117%
